Assay results reported in patent publication US10213474B2, “Delivery of drugs” (Nanomerics LTD, priority 2013, dated 2019).

Chains of the proteins cited; added tags and fusions are not shown. Lines headed by an entry give the natural chain unless they say otherwise; changes in a name come on top.
UniProt P01210: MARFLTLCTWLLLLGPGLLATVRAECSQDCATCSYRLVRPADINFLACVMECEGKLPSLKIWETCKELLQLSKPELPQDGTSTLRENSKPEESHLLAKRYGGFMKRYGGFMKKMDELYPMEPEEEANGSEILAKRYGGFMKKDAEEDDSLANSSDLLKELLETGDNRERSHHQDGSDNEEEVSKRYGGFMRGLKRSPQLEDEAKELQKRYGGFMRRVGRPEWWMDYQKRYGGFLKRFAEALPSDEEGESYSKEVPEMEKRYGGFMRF

Tested on: CFA induced chronic inflammatory pain (mechanical hypersensitivity)
Experiment: Complete Freund's Adjuvant (CFA) rat inflammatory pain model, paw withdrawal to von Frey hairs after intranasal administration
Assay type: in vivo, Sprague Dawley rats
Conditions: Example 1, FIG. 1; intranasal 7.5 mg kg−1 LENK (30 mg mL−1); 20, 40 min, 1, 1.5, 2, 3 and 4 hr
Description: Sprague Dawley rats (200-250 g) were housed four per cage in an air conditioned unit maintained at 20-22° C. and 50-60% humidity and were allowed free access to standard rodent chow and water. Lighting was controlled on a twelve-hour cycle, lights on at 07.00 h. Animals were habituated for 7 days prior to experimentation and acclimatised to the procedure room for 1 hr prior to testing. All protocols were conducted under a UK Home office licence and approved by a local ethics committee.
Rats were intranasally administered water for injection (0.05 ml), intranasal LENK hydrochloride salt in water 30 mg mL^−1, (7.5 mg kg^−1, pH=5.8, 50 μL), GCPQ-LENK in water composed of LENK hydrochloride salt 30 mg mL^−1, (7.5 mg kg^−1, pH=5.8, 50 μL) and GCPQ (30 mg mL^−1). […] The administered volume was adjusted based on the high performance liquid chromatography (HPLC) quantification of LENK and the body weight of each animal. […]
Rats received an intraplantar injection of 100 μL of CFA (Mycobacterium tuberculosis heat killed suspended in 85% paraffin oil and 15% mannide monooleate 1 mg/ml, Sigma) using a glass Hamilton syringe with a 25 G needle. CFA caused hind paw oedema and mechanical hypersensitivity was evaluated 24 hr after CFA injection.
Mechanical hypersensitivity was evaluated. […] The lowest amount of force required to elicit a response was recorded as the paw withdrawal (g). […]

Substance: Leucine5-enkephalin (YGGFL; Leu-enkephalin hydrochloride salt; UniProt P01210 230-234, looked up) [LENK solution, intranasal LENK hydrochloride salt in water 30 mg mL−1, pH 5.8]
- difference in paw withdrawal versus vehicle control: No statistical difference
